Assays:
Type in all cases: cell-based
[1] = target: T1, Cannabinoid receptor 1 (Homo sapiens, UniProt P21554); assay: Positive allosteric modulation of human CB1 receptor expressed in CHOK1 cells assessed as increase in CP55940-induced beta-arrestin recruitment at 500 nM preincubated for 30 mins followed by CP55940 addition and measured after 90 to 180 mins by PathHunter assay relative to CP55940
[2] = target: T1, Cannabinoid receptor 1; assay: Positive allosteric modulation of human CB1 receptor expressed in CHOK1 cells assessed as increase in CP55940-induced beta-arrestin recruitment at 1000 nM preincubated for 30 mins followed by CP55940 addition and measured after 90 to 180 mins by PathHunter assay relative to CP55940
[3] = target: T1, Cannabinoid receptor 1; assay: Positive allosteric modulation of human CB1 receptor expressed in CHOK1 cells assessed as increase in CP55940-induced beta-arrestin recruitment at 200 nM preincubated for 30 mins followed by CP55940 addition and measured after 90 to 180 mins by PathHunter assay relative to CP55940

Protein sequences, listed by entry. Tags and fused reporters are not part of them.
UniProt P21554, whole entry: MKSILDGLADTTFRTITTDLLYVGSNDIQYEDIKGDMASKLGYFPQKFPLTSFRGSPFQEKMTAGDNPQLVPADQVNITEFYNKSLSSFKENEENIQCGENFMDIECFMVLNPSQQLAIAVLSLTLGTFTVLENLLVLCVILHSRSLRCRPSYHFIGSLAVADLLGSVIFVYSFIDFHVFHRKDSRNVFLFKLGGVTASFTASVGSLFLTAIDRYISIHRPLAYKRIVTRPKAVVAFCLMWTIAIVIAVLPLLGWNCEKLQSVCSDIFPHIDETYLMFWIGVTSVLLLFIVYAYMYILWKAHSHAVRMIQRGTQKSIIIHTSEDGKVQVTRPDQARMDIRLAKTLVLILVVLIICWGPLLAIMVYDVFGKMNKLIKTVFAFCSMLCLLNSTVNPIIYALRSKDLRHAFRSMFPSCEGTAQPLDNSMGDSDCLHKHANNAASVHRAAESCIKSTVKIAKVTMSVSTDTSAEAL

| SMILES | Activity [1] [%] | other results |
| --- | --- | --- |
| O=[N+]([O-])CC(c1cccs1)c1c(-c2ccccc2)[nH]c2cc(C(F)(F)F)ccc12 (racemic) | > 50 | – |
| N#CCC(c1ccccc1)c1c(-c2ccccc2)[nH]c2cc(Cl)ccc12 (racemic) | – | Activity [2]: > 50% |
| N#Cc1ccc2c(C(CC(F)(F)F)c3cccs3)c(-c3ccccc3)[nH]c2c1 (racemic) | – | Activity [3]: > 50% |
| N#Cc1ccc2c([C@@H](CC(F)(F)F)c3cccs3)c(-c3ccccc3)[nH]c2c1 | > 50 | – |
| N#Cc1ccc2c([C@H](CC(F)(F)F)c3cccs3)c(-c3ccccc3)[nH]c2c1 | > 50 | – |

Reference: ChEMBL document CHEMBL4350967, “The Trifluoromethyl Group as a Bioisosteric Replacement of the Aliphatic Nitro Group in CB1 Receptor Positive Allosteric Modulators” (J Med Chem, 2019)
